This is an account of results in patent US11492367B2, “Cyclic dinucleotides as sting agonists” (Janssen Biotech, Inc., priority 2017, dated 2022).

Amino acid sequences for entries named in this document (tags omitted).
UniProt Q86WV6, whole entry H232R: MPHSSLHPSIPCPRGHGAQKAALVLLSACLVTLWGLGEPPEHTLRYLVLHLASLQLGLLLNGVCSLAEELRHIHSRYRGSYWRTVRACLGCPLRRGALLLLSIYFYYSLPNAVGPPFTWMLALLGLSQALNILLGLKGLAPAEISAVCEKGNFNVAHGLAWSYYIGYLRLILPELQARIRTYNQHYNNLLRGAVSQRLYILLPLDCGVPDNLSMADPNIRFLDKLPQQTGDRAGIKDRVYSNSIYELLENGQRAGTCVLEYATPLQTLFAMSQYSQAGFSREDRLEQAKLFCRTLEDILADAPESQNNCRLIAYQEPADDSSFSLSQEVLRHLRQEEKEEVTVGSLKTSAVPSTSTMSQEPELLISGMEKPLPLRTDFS

Read-outs that look alike come from different tables or passages of the source.

Test [1] deals with human STING pathway in THP1-ISG cells. The test is described as follows: STING human cell reporter assay. Background: A reporter such as luciferase makes a cellular process visible.
In a further test the test system is THP1-Blue ISG cells. Kind of test: Human interferon-β induction assay. To be noted: IFN-β in supernatant of THP1-Blue ISG cells.
A further test has as its target human STING (Homo sapiens (Human), UniProt Q86WV6, H232R). Kind of test: STING SPA binding assay (human). To be noted: read-out: hSTING SPA IC50; displacement of [3H]-2′3′-cGAMP from biotinylated STING (139-379, H232R); tested form: Na salt.
Setting [2] is: read-out: human cell reporter EC50, SEAP reporter, 24 h.

For `Nc1nc2c(ncn2C2OC3COP(=O)(O)NC4C(COP(=O)(O)OC2C3O)OC(n2cnc3c(N)ncnc32)C4F)c(=O)[nH]1` (stereo not drawn), the concentration giving a half-maximal response (EC50) in test [1] (setting [2]) amounted to 3.73 µM. The “human IFN-β (ranking value)” value with THP1-Blue ISG cells came out at 628.

With `Nc1nc2c(ncn2C2OC3CNP(=O)(O)OC4C(COP(=O)(O)OC2C3F)OC(n2cnc3c(N)ncnc32)C4O)c(=O)[nH]1` (stereo not drawn), the EC50 in test [1] (setting [2]) amounted to 9.5 µM.

As for `COC1C2COP(=O)(O)NC3C(CO[P@@](=O)(S)OC1C(n1cnc4c(=O)[nH]c(N)nc41)O2)OC(n1cnc2c(N)ncnc21)C3F` (stereo partly drawn), the IC50 at human STING is < 10 nM. The EC50 in test [1] (read-out: human cell reporter EC50, SEAP reporter, 24 h, tested form: Na salt) was 1.97 µM. Moreover, the “human IFN-β (ranking value)” value with THP1-Blue ISG cells (tested form: Na salt) stood at 943.

By EC50 is commonly meant the concentration that produces a half-maximal response. The IC50 is the concentration that inhibits the measured activity by half.
